Assay: Solubility in water of calcium salts
Assay type: physicochemical
Text: The solubility in water of the calcium lactobionate thus obtained was compared with those of other calcium salts (manufactured by Wako Pure Chemical Industries).

Ca oxalate
Solubilities in water: 0.001 g/100 mL
